Molecular target: T1, Solute carrier family 15 member 2 (Homo sapiens, UniProt Q16348)
T1 sequence (Q16348 whole entry): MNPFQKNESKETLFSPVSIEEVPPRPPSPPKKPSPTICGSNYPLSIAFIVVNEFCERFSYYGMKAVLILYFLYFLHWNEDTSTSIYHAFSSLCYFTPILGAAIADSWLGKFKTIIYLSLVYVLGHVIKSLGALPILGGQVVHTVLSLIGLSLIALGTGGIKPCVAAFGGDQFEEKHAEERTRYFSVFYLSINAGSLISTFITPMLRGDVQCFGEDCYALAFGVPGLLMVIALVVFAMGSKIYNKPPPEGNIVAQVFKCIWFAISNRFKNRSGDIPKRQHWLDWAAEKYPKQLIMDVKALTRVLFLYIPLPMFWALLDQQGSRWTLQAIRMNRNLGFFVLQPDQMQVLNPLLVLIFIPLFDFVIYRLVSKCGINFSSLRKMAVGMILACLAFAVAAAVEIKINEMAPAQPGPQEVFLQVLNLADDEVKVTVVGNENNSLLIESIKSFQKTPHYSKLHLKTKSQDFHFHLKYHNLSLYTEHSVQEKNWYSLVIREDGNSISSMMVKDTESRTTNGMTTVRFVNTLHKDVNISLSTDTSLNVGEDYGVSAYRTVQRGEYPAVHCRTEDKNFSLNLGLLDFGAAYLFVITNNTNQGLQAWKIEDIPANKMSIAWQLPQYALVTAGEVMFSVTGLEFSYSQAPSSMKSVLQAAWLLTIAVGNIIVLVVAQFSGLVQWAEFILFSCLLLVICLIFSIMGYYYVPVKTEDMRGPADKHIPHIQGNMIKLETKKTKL
Experiment: Binding affinity to human PepT2 in SKTP cells
Assay type: ADME, cell-based

Ki: 23 µM
Compound: CC(C)[C@H](N)C(=O)N1CCC[C@H]1C(=O)N1CCC[C@H]1C(=O)O

— ChEMBL document CHEMBL1811879, “Fragmental modeling of hPepT2 and analysis of its binding features by docking studies and pharmacophore mapping” (Bioorg Med Chem, 2011)
